Earlier results in patent publication US12201712B2, “Method for dyeing keratinous material, comprising the use of an organosilicon compound, a phosphoric acid ester and a dyeing compound” (Henkel AG & Co. KGaA, priority 2020, dated 2025).

Conditions: 25° C.

## 3,4,5,6-tetrachloro-2-(1,4,5,8-tetrabromo-6-hydroxy-3-oxoxanthen-9-yl)benzoic acid [Acid Red 92]
  solubility in water: greater than 10 g/L
